Chains of the proteins cited; added tags and fusions are not shown.
UniProt Q99250, whole entry: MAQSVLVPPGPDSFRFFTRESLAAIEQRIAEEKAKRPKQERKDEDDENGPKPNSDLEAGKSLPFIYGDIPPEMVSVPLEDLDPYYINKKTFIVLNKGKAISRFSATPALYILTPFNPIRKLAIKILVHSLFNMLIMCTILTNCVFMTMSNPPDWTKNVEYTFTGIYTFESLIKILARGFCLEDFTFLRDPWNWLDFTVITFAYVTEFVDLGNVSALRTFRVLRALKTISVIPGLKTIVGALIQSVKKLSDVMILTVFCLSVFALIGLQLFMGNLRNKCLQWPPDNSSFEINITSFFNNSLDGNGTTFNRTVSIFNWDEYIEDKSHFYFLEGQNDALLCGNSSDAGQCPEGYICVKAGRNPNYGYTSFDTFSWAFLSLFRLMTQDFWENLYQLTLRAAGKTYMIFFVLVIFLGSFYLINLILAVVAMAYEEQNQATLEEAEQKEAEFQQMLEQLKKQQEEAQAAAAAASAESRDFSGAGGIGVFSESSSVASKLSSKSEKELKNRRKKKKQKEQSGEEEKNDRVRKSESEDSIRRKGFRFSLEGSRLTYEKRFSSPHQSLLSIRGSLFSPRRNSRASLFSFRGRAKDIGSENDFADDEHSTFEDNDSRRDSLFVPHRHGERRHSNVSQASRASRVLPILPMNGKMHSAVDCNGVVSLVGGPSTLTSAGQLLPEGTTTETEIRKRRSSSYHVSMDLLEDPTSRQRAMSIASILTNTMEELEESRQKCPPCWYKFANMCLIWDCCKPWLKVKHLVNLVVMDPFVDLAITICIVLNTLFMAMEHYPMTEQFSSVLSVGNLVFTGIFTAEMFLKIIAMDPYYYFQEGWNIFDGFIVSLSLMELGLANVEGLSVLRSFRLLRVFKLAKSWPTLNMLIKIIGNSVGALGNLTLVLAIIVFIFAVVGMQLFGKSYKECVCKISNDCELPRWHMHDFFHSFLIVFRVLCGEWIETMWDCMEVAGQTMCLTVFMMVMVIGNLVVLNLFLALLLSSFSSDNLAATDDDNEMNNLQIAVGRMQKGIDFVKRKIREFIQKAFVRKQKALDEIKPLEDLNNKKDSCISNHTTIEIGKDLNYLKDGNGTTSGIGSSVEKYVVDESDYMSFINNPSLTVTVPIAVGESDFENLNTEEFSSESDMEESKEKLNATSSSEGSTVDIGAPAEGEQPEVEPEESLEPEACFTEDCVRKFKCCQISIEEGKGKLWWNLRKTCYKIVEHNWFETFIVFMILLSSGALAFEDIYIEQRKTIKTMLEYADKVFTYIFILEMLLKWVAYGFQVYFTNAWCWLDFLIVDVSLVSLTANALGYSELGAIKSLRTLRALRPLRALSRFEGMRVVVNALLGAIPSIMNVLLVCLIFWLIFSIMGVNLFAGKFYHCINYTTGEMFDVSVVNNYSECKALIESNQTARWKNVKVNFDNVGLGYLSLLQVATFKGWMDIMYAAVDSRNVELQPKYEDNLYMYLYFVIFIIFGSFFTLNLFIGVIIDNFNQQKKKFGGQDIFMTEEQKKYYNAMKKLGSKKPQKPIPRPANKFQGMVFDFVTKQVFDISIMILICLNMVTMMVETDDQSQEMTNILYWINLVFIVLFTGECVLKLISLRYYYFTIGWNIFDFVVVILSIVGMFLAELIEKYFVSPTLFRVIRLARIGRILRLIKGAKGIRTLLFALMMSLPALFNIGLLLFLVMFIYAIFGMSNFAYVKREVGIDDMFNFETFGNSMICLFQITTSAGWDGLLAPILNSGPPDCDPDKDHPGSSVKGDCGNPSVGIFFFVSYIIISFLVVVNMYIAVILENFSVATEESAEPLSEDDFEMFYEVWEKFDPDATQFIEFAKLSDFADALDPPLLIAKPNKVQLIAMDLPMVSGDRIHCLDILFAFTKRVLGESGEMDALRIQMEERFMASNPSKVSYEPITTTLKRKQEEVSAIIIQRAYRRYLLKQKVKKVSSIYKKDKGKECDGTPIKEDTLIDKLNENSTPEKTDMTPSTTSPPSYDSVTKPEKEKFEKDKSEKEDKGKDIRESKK

According to patent publication US20140107219A1, “LOCAL ANAESTHETIC” (VITA (EUROPE) LIMITED, priority 2011, published 2014):

Molecular target: T1, hNav1.2 sodium channels (SCN2A gene, expressed in CHO cells) (Homo sapiens, UniProt Q99250)
T1 construct: expressed in transfected cells; host or cells: CHO cells
Assay: Automated patch clamp (PatchXpress 7000A), cloned hNav1.2 in CHO cells, tonic and phasic
Assay type: cell-based
Conditions: for pIC50: FIG. 42
Procedure: In this example, the in vitro effects of 2-heptanone on the following ion channels were evaluated at room temperature using the PatchXpress 7000A (Molecular Devices), an automatic parallel patch clamp system:
1. Cloned hNav1.2 sodium channels (SCN2A gene, expressed in CHO cells). 2. Cloned hNav1.6 sodium channels (SCN8A gene, expressed in CHO cells).
The effects of 2-heptanone were evaluated at 0.73, 1.46, 2.19, and 2.92 mg/ml with each concentration tested in two cells (n=2). The duration of exposure to each concentration of 2-heptanone was 5 minutes. Tables 2 to 5 show the individual results from each concentration followed by individual concentration-response curves. The positive controls (Table 6) confirm the sensitivity of the test systems to inhibition.
. Br. J. Pharmacol. 164, 719-730). […]

In the case of `CCN(CC)CC(=O)Nc1c(C)cccc1C` [lidocaine, 2-(diethylamino)-N-(2,6-dimethylphenyl)-acetamide, reference compound], the “hNav1.2 IC50, phasic” value (Example 18, mean ± SEM) was 100 ± 10 µg/mL, the IC50 (Example 18, mean ± SEM, read-out: hNav1.2 IC50, tonic (converted)) was 1150 µM and the pIC50 (read-out: Nav1.2 IC50, phasic) was 3.40. For the same compound, the pIC50 (read-out: Nav1.2 IC50, tonic) was 3.00.

pIC50: −log10 of the molar value. Where two headings read alike, the source gives them in different places.
